## Ab-14 heavy chain CDR variants: yeast mating affinities

From the AlphaSeq antibody data of Li et al. 2023 (doi:10.1038/s41467-023-39022-2), copy in the FLAb collection.

Target: peptide PDVDLGDISGINAS, taken from heptad repeat 2 (HR2) of SARS-CoV-2 spike.

The variants keep the light chain, the linker and the frameworks of Ab-14 (scFv order VH, a (GGGGS)3 linker, VL).
VH: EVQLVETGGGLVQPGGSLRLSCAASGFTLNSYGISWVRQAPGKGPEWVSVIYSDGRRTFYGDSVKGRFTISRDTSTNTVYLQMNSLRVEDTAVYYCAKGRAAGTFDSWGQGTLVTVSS
VL: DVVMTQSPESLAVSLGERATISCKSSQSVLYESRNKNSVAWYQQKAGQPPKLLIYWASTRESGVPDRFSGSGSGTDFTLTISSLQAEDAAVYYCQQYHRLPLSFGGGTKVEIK

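The starting antibody came from a phage panning campaign against this peptide. This is the validation round: designs drawn from the data on random variants, tested in the same kind of assay. Group labels follow the data file (Ctrl: baseline library sampled from a position-specific scoring matrix, with some repeated check sequences; Rand: our label for a block that the file lists under HC and that is probably the random mutants of the ten best first-round binders; En: ensemble of fine-tuned language models; GP: Gaussian process model; GPLM: also part of the Gaussian process libraries; HC: hill climbing; Gen: genetic algorithm; Gibbs: Gibbs sampling; a sequence that several methods proposed may carry one label only). In AlphaSeq, yeast of one mating type display the scFv and yeast of the other type display the target. Mating (16 h, 30 °C) was followed by selection of diploids and sequencing of their barcodes. Each replicate has its own calibration line, from reference interactions of the BCL2 family. There are six technical replicates.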

Positions count from residue 1 of the parent VH; T28E puts E in place of T. Variants here have at most six changes. Kd is apparent (estimated from mating counts) and averaged on the log scale over replicates with a signal. Smaller is tighter. An entry "nd" has no value in the source: the pair was not observed among the diploids in any replicate. This suggests poor binding but is not conclusive. The authors' rule: three or more of the six replicates give a measured affinity, fewer mean a poor binder.

With T28E/S63P/R100K/A101T [GP_Gen] the result was 38 nM (6 of 6 replicates). Variant T28S/S31D/D106S [GPLM_HC] gave 6.1 nM (6 of 6 replicates). For T28D/G61D/R100K/A101L [GP_HC], the assay gave 860 pM (6 of 6 replicates). Variant T28D/A101Q/S107M [GP_Gen] showed 7.0 nM (4 of 6 replicates). With T28E/S53A/R100Y [GPLM_Gen] the result was 1.7 nM (6 of 6 replicates).

For R56C/G61I/D62G/A101I [Ctrl], the assay gave nd (0 of 6 replicates). Variant T28D/S31E/S53A/G61S/R100E/S107I [En_HC] gave 290 pM (6 of 6 replicates). Variant S31E/G61Q/G103V/S107K [GP_HC] gave nd (0 of 6 replicates). For T28Q/S31E/S63Q/A101T/S107K [GP_Gen], the assay gave 3.6 nM (6 of 6 replicates). For N30E/R56M/G61A [GPLM_Gen], the assay gave 53 nM (3 of 6 replicates).

Variant S53A/R56K/S107T [GP_Gen] gave 1.0 nM (6 of 6 replicates). Variant S31D/S35H/G103L/D106I [Rand] gave nd (0 of 6 replicates). Variant T28S/R100N/A101E [GPLM_Gen] showed 500 pM (6 of 6 replicates). Variant R56W/A102K [Ctrl] showed nd (0 of 6 replicates). For T28D/S31E/S53A/G61T/R100E/A101I [En_HC], the assay gave 380 pM (6 of 6 replicates).

Variant T28N/G61T/R100N [GPLM_Gibbs] gave 3.1 nM (6 of 6 replicates). Variant S31Q/G61S/A101Q [GP_HC] gave 1.5 nM (6 of 6 replicates). Variant T28W/S31D/G61A [GPLM_Gibbs] showed 110 nM (2 of 6 replicates). For T28N/S31Q/G61A [GPLM_HC], the assay gave 2.1 nM (6 of 6 replicates). Variant L29K/R56V/S63N/R100L [Ctrl] gave nd (0 of 6 replicates).

Variant T28Q/S31E/S63Q/R100Q [GP_Gen] showed 1.6 nM (4 of 6 replicates). For G26Q/A101V/D106F [Ctrl], the assay gave nd (0 of 6 replicates). With T28W/S31E/S63Q/A101T [GP_Gen] the result was 1.5 nM (1 of 6 replicates). With S31D/A101M/D106T [GPLM_HC] the result was 47 nM (1 of 6 replicates). With T28N/S63H/A101T [GPLM_Gen] the result was 6.5 nM (4 of 6 replicates).

Variant T28V/R100E/S107T [GP_Gibbs] showed 27 nM (6 of 6 replicates). Variant T28S/S31D/R100K/A101E [GP_Gibbs] gave 35 nM (6 of 6 replicates). For F27R/N30D/A101I/F105M/S107M [Ctrl], the assay gave nd (0 of 6 replicates). Variant G61S/G103V/S107P [GP_HC] showed nd (0 of 6 replicates). Variant T28S/G61A/S63N/A101M [GP_Gen] showed 2.8 nM (6 of 6 replicates).

Variant T28D/S31E/S53A/R56K/G61A/R100E [En_HC] showed 590 pM (6 of 6 replicates). Variant R100D [Ctrl] gave 14 nM (6 of 6 replicates). Variant G26L/N30E/R100T/F105I [Ctrl] showed 19 nM (1 of 6 replicates). With T28E/G61V/R100E [GP_Gen] the result was 27 nM (6 of 6 replicates). Variant R57N/G61S/A102G [Rand] showed nd (0 of 6 replicates).

Repeated from above, the 4 best binders with a signal in all replicates:

Variant T28D/S31E/S53A/G61S/R100E/S107I [En_HC] gave 290 pM (6 of 6 replicates).
Variant T28D/S31E/S53A/G61T/R100E/A101I [En_HC] gave 380 pM (6 of 6 replicates).
Variant T28S/R100N/A101E [GPLM_Gen] gave 500 pM (6 of 6 replicates).
Variant T28D/S31E/S53A/R56K/G61A/R100E [En_HC] gave 590 pM (6 of 6 replicates).

Values of this round are not directly comparable with the first-round values of the same sequences. Background: pairings of all heavy chain designs with three empty control strains gave a value in 1% of cases (median 120 nM, 5th percentile 7.0 nM). Values in that range, when seen in few replicates, are hard to tell from nonspecific mating.